This is a selection; strong and weak results do not stand in their true shares. Records with an inconclusive call do not appear. Calls of active or inactive are those of the source. Cut-off read from the data, not from the text of the source: active = activity change below about -50%; inconclusive = mostly about -30% to -49%; inactive = weaker than that.

Data on 80 molecules can be found in PubChem BioAssay AID743279 (National Center for Advancing Translational Sciences (NCATS), 2014).
% is set by controls: 0 for no effect and ±100 for the full control effect.

This test in a line: qHTS for Inhibitors of Inflammasome Signaling: IL-1-beta AlphaLISA Primary Screen. The following applies: THP-1 LPS/ATP IL-1B secretion, 16 h; at 57.5 µM, hits give low values. An excerpt: Inflammasomes are a set of intracellular multi-protein complexes that enable autocatalytic activation of inflammatory caspases and drive the innate immune response to counter harmful agents. […] A qHTS assay, based on AlphaLISA technology, was developed to screen the Molecular Libraries Small Molecule Repository (MLSMR) to look for novel inflammasome inhibitors. The assay detects IL-1B using AlphaLISA anti-IL-1B acceptor and donor beads. A decreased emission signal, indicating reduced IL-1B secretion, is the desired outcome for this assay. NIH Chemical Genomics Center [NCGC] NIH Molecular Libraries Probe Centers Network [MLPCN] MLPCN Grant: MH095513 Assay Provider: Shyam Biswal Ph.D., Johns Hopkins University Immunity. 2012 Jul 27;37(1):85-95. PMID: 22819042 [2] Curr Pharm Des. 2012;18(16):2320-8. PMID: 22390695
Three microliters containing 3000 THP-1 cells were dispensed into the wells of solid, white, tissue culture treated Greiner 1,536-well plates. Library compounds and positive control, Glyburide, were pin-transferred (23 nL) by a Kalypsys pin-tool equipped with a 1,536-pin array, resulting in final compound concentration ranges of 2.5 nM to 57.5 uM. After 1 hr of cell culture incubation (37 °C, 5% CO2), 1 microL of 1 microg/mL lipopolysaccharide (250 ng/mL, final) and 5 mM ATP (1.25 mM, final) were added to stimulate the cells. After 16 hr of cell culture incubation with the compounds, 1.5 uL of anti-IL-1B acceptor beads (6 ug/mL, final) and biotinylated antibody (0.6 nM, final) were added to the plate, followed by a 1 hr incubation at ambient temperature. To detect the secreted IL-1B, 1.5 uL of AlphaLISA SA-Donor beads (24 ug/mL, final) were added, followed by 30 min of incubation in the dark at ambient temperature. The AlphaLISA signal was read by a PerkinElmer EnVision plate reader with an ultrasensitive luminescence detector and 1536 Plate HTS AlphaScreen aperture (excitation of 680nm and emission of 615nm).
On the technique in general: In qHTS, concentration-response curves come from the screen itself.
Regarding `COc1ccc(NP(C)(=O)Oc2ccccc2OC)cc1` (stereo not given), the activity change is inactive: 12%. For `CN(C)CCOC(=O)C(O)(c1ccccc1)C1CCCCC1` (stereo not given), the activity change was inactive: -3.9%. Under `COc1ccc(OP(C)(=O)Nc2cccc(Br)c2)cc1` (stereo not given) stands inactive: 8.56%; under `Cc1c(C(c2ccc3c(c2)OCO3)c2c(C)n(C)n(-c3ccccc3)c2=O)c(=O)n(-c2ccccc2)n1C.O=[N+]([O-])c1cc([N+](=O)[O-])c(O)c([N+](=O)[O-])c1`, inactive: 12.6%. In the case of `Cc1cc(-c2cccc3ccccc23)c(C)cn1.O=[N+]([O-])c1cc([N+](=O)[O-])c(O)c([N+](=O)[O-])c1`, the activity change is inactive: 37.1%. To `O=[N+]([O-])c1ccc(OP2(=O)COCCO2)cc1` (stereo not given) belongs inactive: 2.91%; to `CCOP(C)(=S)SCC(=O)NC(C)(CC)C(=O)O` (stereo not given), inactive: -10.5%. With `CP(=O)(Nc1ccc(SC(F)(F)F)cc1)Oc1ccc(F)cc1` (stereo not given), the activity change was inactive: -13.7%. Regarding `O=[N+]([O-])c1cc([N+](=O)[O-])c(C(F)(F)F)c([N+](=O)[O-])c1O`, the activity change was inactive: 42.8%. To `Cc1ccccc1NP(C)(=O)Nc1ccccc1C` belongs inactive: 7.68%. Under `CP(=O)(Nc1ccc2c(c1)OCCO2)Oc1ccccc1` (stereo not given) stands inactive: -13.7%. To `CC(C)c1ccc(OP(C)(=O)Nc2ccc(SC(F)(F)F)cc2)cc1` (stereo not given) belongs “active”; to `O=C(OCCN1CCN(CCOCc2ccccc2)CC1)C(O)(c1ccccc1)c1ccccc1`, inactive: -13.5%. In the case of `COc1ccc(OP(C)(=O)Nc2ccc(SC(F)(F)F)cc2)cc1` (stereo not given), the activity change result is “active”. Under `CCOC(=O)c1ccc(NP(C)(=O)Oc2ccc(F)cc2)cc1` (stereo not given) stands inactive: 12.4%. To `CCCCCOc1ccc(NP(C)(=O)Oc2ccc(Cl)cc2Cl)cc1` (stereo not given) belongs inactive: -18.6%. Under `CP(=O)(Nc1ccccc1)Oc1ccc(F)cc1` (stereo not given) stands inactive: -4.8%. Regarding `Cc1c([N+](=O)[O-])cc([N+](=O)[O-])c(Br)c1[N+](=O)[O-]`, the activity change is inactive: -0.836%.

Turning to `COc1ccc(OP(C)(=O)Nc2ccccc2Br)cc1` (stereo not given), the activity change was inactive: 0.532%. Under `COc1ccccc1OP(C)(=O)Nc1ccc(C)c(C)c1` (stereo not given) stands inactive: -4.19%; under `Cc1cc(C)cc(OP(C)(=O)Nc2cccc(C(F)(F)F)c2)c1` (stereo not given), inactive: -23.1%; under `CP(=O)(Nc1ccc(Cl)cc1Cl)Oc1ccccc1` (stereo not given), inactive: -7.31%. To `CCCCCCCCCCCCCCCC1C[N+](C)(C)CCOP(C)(=O)O1` (stereo not given) belongs “active”; to `CP(=O)(OCCOc1ccccc1)OCCOc1ccccc1`, inactive: 18.4%; to `CN(C)CCOC(=O)C(O)(c1ccccc1)C1CCCC1` (stereo not given), inactive: 11%. To `COc1ccccc1OP(C)(=O)Nc1ccc(Br)cc1` (stereo not given) belongs inactive: -12.5%; to `CCc1ccc(OP(C)(=O)O)cc1`, inactive: 2.96%. For `COc1ccccc1OP(C)(=O)Nc1ccc(C)cc1C` (stereo not given), the activity change was inactive: -1.53%. Under `CP(=O)(Nc1ccccn1)Oc1ccccc1` (stereo not given) stands inactive: -2.84%. Under `Cc1c(NP(C)(=O)Oc2ccc(C(C)C)cc2)c(=O)n(-c2ccccc2)n1C` (stereo not given) stands inactive: 12%; under `O=[N+]([O-])c1cc([N+](=O)[O-])c(Nc2ccccn2)c([N+](=O)[O-])c1`, “active”; under `CCc1ccc(OP(C)(=O)Nc2cccnc2)cc1` (stereo not given), inactive: 3.81%. To `CP(=O)(Oc1ccccc1)N1CCOC1=O` (stereo not given) belongs inactive: 5.17%; to `O=C(OCCCN1CCCC1)C(O)(c1ccccc1)C1CCCCC1` (stereo not given), inactive: -6.09%; to `COc1ccccc1OP(C)(=O)Nc1c(C)n(C)n(-c2ccccc2)c1=O` (stereo not given), inactive: 5.78%.

On to `COc1ccc(OP(C)(=O)Nc2ccc(Br)cc2)cc1` (stereo not given), for which the activity change was inactive: -8.77%. To `CCN(CC)CC(O)COC(=O)C(O)(c1ccccc1)C1CCCCC1` (stereo not given) belongs inactive: -22.4%; to `CN(C)C(=O)c1c([N+](=O)[O-])cc([N+](=O)[O-])cc1[N+](=O)[O-]`, inactive: 1.19%; to `CC(C)(C)c1ccc(OP(C)(=O)O)cc1`, inactive: 16.5%.

In the case of `CP(=O)(OC12CC3CC(CC(C3)C1)C2)OC12CC3CC(CC(C3)C1)C2`, the activity change was inactive: -2.91%. Take `CCOC(=O)c1ccc(NP(C)(=O)Oc2ccc(Cl)cc2)cc1` (stereo not given): the activity change is inactive: 12.6%. `Nc1ccc2c(ccc3cccnc32)n1.O=[N+]([O-])c1cc([N+](=O)[O-])c(O)c([N+](=O)[O-])c1`: the activity change is inactive: 0%. Under `COc1ccccc1OP(C)(=O)Nc1ccccc1` (stereo not given) stands inactive: 4.04%. Under `CP(=O)(Nc1ccccc1Br)Oc1ccccc1` (stereo not given) stands inactive: 10.6%; under `CP(=S)(Nn1cnnc1)Oc1ccccc1` (stereo not given), inactive: -3.44%. For `Cc1cc(C)cc(OP(C)(=O)Nc2ccc(SC(F)(F)F)cc2)c1` (stereo not given), the activity change result is “active”.

For `CP(=O)(NC(=O)Nc1ccccc1)Oc1ccccc1` (stereo not given), the activity change is inactive: 13.6%. Under `CP(=O)(Oc1ccccc1)OC(c1ccccc1)C(F)(F)F` (stereo not given) stands inactive: -6.12%; under `CP(=O)(Nc1ccc(SC(F)(F)F)cc1)Oc1ccc(Cl)cc1` (stereo not given), inactive: -8.51%.

On to `Cc1cccc(C)c1OP(C)(=O)Nc1ccc(SC(F)(F)F)cc1` (stereo not given), for which the activity change is inactive: 39.8%. Under `CP(=O)(Nc1ccccn1)Oc1ccc(Cl)cc1` (stereo not given) stands inactive: 9.45%. On to `CCOP(C)(=S)SCC(=O)NC(C)C(=O)O` (stereo not given), for which the activity change is inactive: 0%. To `O=[N+]([O-])c1cc([N+](=O)[O-])c(O)c([N+](=O)[O-])c1.c1ccc(Oc2ccncc2)cc1` belongs inactive: -3.1%. Under `CCOC(=O)c1ccc(NP(C)(=O)Oc2ccc(OC)cc2)cc1` (stereo not given) stands inactive: -0.769%; under `CCN(CC)CCCOC(=O)C(O)(c1ccccc1)c1ccccc1`, inactive: -12.5%. To `COc1ccccc1-c1ccccn1.O=[N+]([O-])c1cc([N+](=O)[O-])c(O)c([N+](=O)[O-])c1` belongs inactive: 26.1%. On to `Cc1cccc(C)c1OP(C)(N)=O` (stereo not given), for which the activity change is inactive: -17.5%. For `CC(C)(C)c1ccc(OP(C)(=O)Nc2ccc(SC(F)(F)F)cc2)cc1` (stereo not given), the activity change result was “active”.

As to `O=[N+]([O-])c1ccc2c(c1)C=Nc1ccccc1O2`, the activity change is inactive: 11.4%. To `COc1ccc(OP(C)(=O)Nc2cccc(F)c2)cc1` (stereo not given) belongs inactive: 29%; to `COc1ccccc1OP(C)(=O)Nc1cc(Cl)ccc1C` (stereo not given), inactive: -19.8%. Under `Cc1cc(C)cc(OP(C)(N)=O)c1` (stereo not given) stands inactive: 3.32%; under `CCOC(=O)c1ccc(NP(C)(=O)Oc2ccccc2)cc1` (stereo not given), inactive: 8.88%; under `Cc1ccc(NP(C)(=O)Oc2ccccc2)c(C)c1` (stereo not given), inactive: -4.59%. Under `COc1ccccc1OP(C)(=O)Nc1ccc(C)cc1` (stereo not given) stands inactive: -6.11%. In the case of `CC1=NCCc2c1[nH]c1ccccc21.O=[N+]([O-])c1cc([N+](=O)[O-])c(O)c([N+](=O)[O-])c1`, the activity change was inactive: 17%. As to `Cc1cc(C)cc(OP(C)(=O)Nc2ccc(C)cc2C)c1` (stereo not given), the activity change is inactive: -11.9%.

Consider `CCOC(=O)c1ccc(NP(C)(=O)Oc2cc(C)cc(C)c2)cc1` (stereo not given), for which the activity change is inactive: 0%. To `Cc1cc(C)cc(OP(C)(=O)Nc2ccccn2)c1` (stereo not given) belongs inactive: 2.58%; to `CP(=O)(Nc1cccc(Br)c1)Oc1ccccc1` (stereo not given), inactive: -15.2%; to `Cc1ccc(C)c(NP(C)(=O)Oc2ccccc2)c1` (stereo not given), inactive: 12.2%.

For `CN(Cc1cccnc1)C(=O)COc1ccc(Cl)c(Cl)c1.O=[N+]([O-])c1cc([N+](=O)[O-])c(O)c([N+](=O)[O-])c1`, the activity change was inactive: 7.91%.

`O=[N+]([O-])c1cc([N+](=O)[O-])c(-n2nnc3ccccc32)c([N+](=O)[O-])c1`: the activity change is inactive: -27.7%. To `Cc1nc2ccc3ccccc3c2s1.O=[N+]([O-])c1cc([N+](=O)[O-])c(O)c([N+](=O)[O-])c1` belongs inactive: 23.4%; to `O=[N+]([O-])c1cc([N+](=O)[O-])c(-c2cnn(-c3ccccc3)c2)c([N+](=O)[O-])c1`, “active”; to `CC1=C2N=C(C=C3N=C(C(C)=C4[N-][C@@](C)([C@@H]5N=C1[C@](C)(CCC(=O)NC[C@@H](C)OP(=O)([O-])O[C@H]1[C@@H](O)[C@@H](n6cnc7cc(C)c(C)cc76)O[C@@H]1CO)[C@H]5CC(N)=O)[C@@](C)(CC(N)=O)[C@@H]4CCC(N)=O)[C@@](C)(CC(N)=O)[C@@H]3CCC(N)=O)C(C)(C)[C@@H]2CCC(N)=O.[C-]#N.[Co+3]`, inactive: -3.36%. To `O=[N+]([O-])c1cc([N+](=O)[O-])c(Nc2nnnn2CCO)c([N+](=O)[O-])c1` belongs inactive: 1.25%; to `CP(=O)(Nc1ccc(SC(F)(F)F)cc1)Oc1ccccc1` (stereo not given), “active”. To `CN1CCCCC1COC(=O)C1(O)c2ccccc2CCc2ccccc21` (stereo not given) belongs active: -69.9%; to `COc1ccccc1OP(C)(=O)Nc1c(C)cccc1C` (stereo not given), inactive: 15.5%.
